Consider 2 compounds from patent US10023562B2, “Heteroaryl substituted pyridyl compounds useful as kinase modulators” (BRISTOL-MYERS SQUIBB COMPANY, priority 2012, dated 2018).

This experiment relates to TLR2 induced IL-6 in peripheral blood mononuclear cells (PBMCs). The experiment can be described thus: PBMC TLR2 Induced IL-6 Assay. The class given is cell-based. The settings on record: Homo sapiens, 5 h, 10 μg/ml lipoteichoic acid for 5 hours, IL-6 by ELISA, values marked * are EC50, read-out: Cell EC50 (values marked *). How it is done:
PBMC TLR2 Induced IL-6 Assay Peripheral blood mononuclear cells (PBMCs) were isolated from human blood containing the anti-coagulant EDTA (2.5 mM) by centrifugation over a FICOLL® gradient. […] At the end of the culture, plates were centrifuged at 1800 rpm for 10 minutes to pellet the cells. Supernatants were harvested and analyzed for IL-6 levels by ELISA (BD Biosciences, San Jose, Calif.).
Background: ELISA stands for enzyme-linked immunosorbent assay.

Take `Cc1cc(C#N)cnc1Nc1cc(NC(C)C)c(C(=O)NC[C@@H](F)C(C)(C)O)cn1` [Example 85]: the EC50 amounted to 62 nM. In the case of `CC(C)Nc1cc(Nc2ncc(Cl)cc2F)ncc1C(=O)NC[C@@H](F)C(C)(C)O` [Example 123] it was 45 nM.

Usually EC50 stands for the concentration at which the effect is half-maximal.
